Source: patent US12286424B2, “Small molecule inhibitors of galectin-3” (BRISTOL-MYERS SQUIBB COMPANY, priority 2020, dated 2025)

The chains behind the UniProt entries cited, without tags or fusion partners.
UniProt P17931, whole entry: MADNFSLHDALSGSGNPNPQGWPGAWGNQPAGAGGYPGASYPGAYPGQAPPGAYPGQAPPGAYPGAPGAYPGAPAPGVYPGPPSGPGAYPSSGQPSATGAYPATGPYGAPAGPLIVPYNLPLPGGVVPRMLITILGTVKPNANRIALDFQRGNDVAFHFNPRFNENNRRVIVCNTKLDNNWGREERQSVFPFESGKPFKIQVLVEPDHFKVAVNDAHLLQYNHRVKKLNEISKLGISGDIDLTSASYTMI

Biological target: hGalectin-3 (Homo sapiens, UniProt P17931)
Test: Gal-3 ELISA assay (hGalectin-3 neutralization binding to asialofetuin)
Conditions: read-out: hGal3 IC50; biotin-tagged hGalectin-3 15 nM, ASF-coated plate

Structure (SMILES): O=C([C@@H]1O[C@H](CO)[C@H](O)[C@H](n2cc(-c3cccc(F)c3)nn2)[C@H]1O)N1CCN(c2ccc3[nH]c(=O)oc3c2)CC1
- pIC50: 6.31

pIC50: −log10 of the molar value.
